Reference: patent US6436691B1, “Chemical compounds” (Zeneca Limited, priority 1995, dated 2002)

Test system: LoVo colorectal tumour cells
Assay: Cytotoxicity in LoVo tumour cells, SRB assay
Conditions: for fold less cytotoxic than the corresponding drug: prodrug versus drug

Row | Compound | IC50 (mean data from 3 separate studies) | fold less cytotoxic than the corresponding drug
1 | Cc1cc(Oc2ccc(C(=O)N[C@@H](C)C(=O)O)cc2)ccc1N(CCCl)CCCl | 84 µM | 
2 | (2S), 2-(3-{4-[bis-(2-chloroethyl)-amino)-phenoxycarbonyl}-propionyl-amino)-pentanedioic acid |  | approximately 50 fold
3 | N-[N-(4-{4-[bis-(2-chloroethyl)-amino]-3-methyl-phenoxy}-benzoyl)-L-alanine]-L-glutamic acid |  | over 10 fold
